## Measured affinities in a library of Ab-14 heavy chain variants

Reference: Engelhart et al. 2022, doi:10.1038/s41597-022-01779-4. File: FLAb, binding data.

Binding partner: SARS-CoV-2 spike HR2 peptide, sequence PDVDLGDISGINAS.

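The parent was found by panning a naive human phage display library on the peptide. In library AAYL49, one, two or three CDR residues were substituted; doubles and triples were drawn at random. In AlphaSeq, yeast of one mating type display the scFv and yeast of the other type display the target. Mating (16 h, 30 °C) was followed by selection of diploids and sequencing of their barcodes. Each replicate has its own calibration line, from reference interactions of the BCL2 family. Each pool was mated in three replicate cultures.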

Each scFv is VH, a (GGGGS)3 linker, VL, as in the parent Ab-14, and differs from it in the CDRs of the heavy chain only.
VH: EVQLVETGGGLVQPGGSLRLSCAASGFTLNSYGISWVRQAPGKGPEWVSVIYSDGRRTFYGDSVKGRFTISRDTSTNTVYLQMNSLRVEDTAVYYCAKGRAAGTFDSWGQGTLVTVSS
VL: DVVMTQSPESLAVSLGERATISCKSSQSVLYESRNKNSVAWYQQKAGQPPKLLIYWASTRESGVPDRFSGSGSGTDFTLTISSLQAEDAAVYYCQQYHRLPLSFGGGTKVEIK

Changes read parent residue, position, new residue, counted from the first residue of the VH shown. Affinities are written as log10 Kd with Kd in nM; a lower number is a better binder. A mean of the replicates is given; it leaves out those without a signal. A pair that was not seen in any replicate is written "nd"; this usually means weak binding, but a binder can also be missed. Nonspecific signal, from three strains lacking the peptide, appeared in 15% of pairings of library AAYL49, centred on 4.06 (5% of these signals below 2.83); values are not corrected for it.

{"changes": "G26T+V50T+K65I", "mean log10 Kd (nM)": "3.88", "seen in": "2/3"}
{"changes": "Y52G+S53Q", "mean log10 Kd (nM)": "3.79", "seen in": "1/3"}
{"changes": "Y52R+R100P+S107W", "mean log10 Kd (nM)": "nd", "seen in": "0/3"}
{"changes": "D54L+R57P+D62Q", "mean log10 Kd (nM)": "3.85", "seen in": "1/3"}
{"changes": "S31G+V64H", "mean log10 Kd (nM)": "nd", "seen in": "0/3"}
{"changes": "T58S+F59N+G103S", "mean log10 Kd (nM)": "2.81", "seen in": "3/3"}
{"changes": "N30G+G33Y+K65H", "mean log10 Kd (nM)": "nd", "seen in": "0/3"}
{"changes": "G26N+N30R+G103I", "mean log10 Kd (nM)": "4.29", "seen in": "1/3"}
{"changes": "L29Y+T58L+S107E", "mean log10 Kd (nM)": "3.92", "seen in": "1/3"}
{"changes": "L29R+G55W", "mean log10 Kd (nM)": "nd", "seen in": "0/3"}
{"changes": "F27V+A101E+D106A", "mean log10 Kd (nM)": "3.70", "seen in": "2/3"}
{"changes": "T28P+S63E+F105S", "mean log10 Kd (nM)": "3.06", "seen in": "1/3"}
{"changes": "Y52C+R56V+G61R", "mean log10 Kd (nM)": "nd", "seen in": "0/3"}
{"changes": "G26N+T104G+F105M", "mean log10 Kd (nM)": "3.48", "seen in": "1/3"}
{"changes": "I34A+G55L+T58L", "mean log10 Kd (nM)": "nd", "seen in": "0/3"}
{"changes": "G99I+R100G+S107W", "mean log10 Kd (nM)": "4.10", "seen in": "1/3"}
{"changes": "F59Q+Y60Q+A102K", "mean log10 Kd (nM)": "4.17", "seen in": "1/3"}
{"changes": "D54G+R56F+R57L", "mean log10 Kd (nM)": "4.70", "seen in": "2/3"}
{"changes": "F27V+S63I+A101M", "mean log10 Kd (nM)": "nd", "seen in": "0/3"}
{"changes": "V50T+Y60W+K65A", "mean log10 Kd (nM)": "4.48", "seen in": "3/3"}

For reference, 2 entries of the list once more:

{"changes": "F27V+A101E+D106A", "mean log10 Kd (nM)": "3.70", "seen in": "2/3"}
{"changes": "F27V+S63I+A101M", "mean log10 Kd (nM)": "nd", "seen in": "0/3"}